Measured values as given in ChEMBL document CHEMBL5042533, “Structural Optimization and Structure-Activity Relationship Studies of 6,6-Dimethyl-4-(phenylamino)-6H-pyrimido[5,4-b][1,4]oxazin-7(8H)-one Derivatives as A New Class of Potent Inhibitors of Pan-Trk and Their Drug-Resistant Mutants” (J Med Chem, 2022).

What was measured:
[1] = system: BaF3; experiment: cells; settings: Mus musculus, BaF3, 72 h
[2] = system: BaF3; experiment: cells; settings: Mus musculus, BaF3, 72 h; remark: listed apart in the source

IC50 [1] [nM] | IC50 [2] [nM] | SMILES
3 | – | Cc1cc(NC(=O)Nc2cc(C(C)(C)C)nn2-c2ccccc2)ccc1Nc1ncnc2c1OC(C)(C)C(=O)N2
– | 30 | Cc1cc(NC(=O)Nc2cc(C(C)(C)C)nn2-c2ccc(C(F)(F)F)cc2)ccc1Nc1ncnc2c1OC(C)(C)C(=O)N2
